{
  "sequences": {"note": "Sequences of proteins named here, by UniProt entry; tags and fusion partners are left off. Residues count along the entry.", "UniProt P22455, 460-802": "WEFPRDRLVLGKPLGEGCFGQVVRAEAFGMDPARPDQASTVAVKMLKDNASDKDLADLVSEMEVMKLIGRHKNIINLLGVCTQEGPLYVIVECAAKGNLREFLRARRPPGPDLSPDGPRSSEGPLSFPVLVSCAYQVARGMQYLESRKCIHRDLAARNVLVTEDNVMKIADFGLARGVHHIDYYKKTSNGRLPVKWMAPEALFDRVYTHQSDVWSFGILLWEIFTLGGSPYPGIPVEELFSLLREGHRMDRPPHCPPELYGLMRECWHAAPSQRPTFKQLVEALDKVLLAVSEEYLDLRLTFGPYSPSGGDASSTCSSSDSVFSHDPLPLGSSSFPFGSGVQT"},
  "source": "patent US10618902B2",
  "about": "“Substituted pyrido[2,3-d]pyrimidines as inhibitors of protein kinases” (Celgene CAR LLC, priority 2013, dated 2020)",
  "biological_target": "FGFR4 intact protein (Homo sapiens (Human), UniProt P22455)",
  "conditions": "method a: FGFR4 from SignalChem; 10-fold excess of compound, 60 min",
  "data": [
    {"smiles": "C=CC(=O)Nc1cccc(Nc2ncc3c(n2)N(Cc2cccc(NC(=O)CC)c2)C(=O)N(c2c(Cl)c(OC)cc(OC)c2Cl)C3)c1", "note": "[Compound I-232]", "values": [
      {"measurement": "MS FGFR4 (mass modification)", "result": "G (a mass modification ≤30%)"}
    ]},
    {"smiles": "C=CC(=O)NC1CCCCC1Nc1ncc2c(n1)N(Cc1cccc(NC(=O)CC)c1)C(=O)N(c1c(Cl)c(OC)cc(OC)c1Cl)C2", "note": "(racemic) [Compound I-7]", "values": [
      {"measurement": "MS FGFR4 (mass modification)", "result": "F (a mass modification of 31-69%)"}
    ]},
    {"smiles": "C=CC(=O)Nc1ccccc1Nc1ncc2c(n1)N(Cc1cccc(NC(=O)CC)c1)C(=O)N(c1c(Cl)c(OC)cc(OC)c1Cl)C2", "note": "[Compound I-1]", "values": [
      {"measurement": "MS FGFR4 (mass modification)", "result": "E (a mass modification of ≥70%)"}
    ]}
  ]
}
